Experimental findings from US7375074B2, “Body weight gain inhibitor” (priority 2001, dated 2008) are described below.

Experiment [1] can be described thus: Food consumption and body weight gain in rat, intraperitoneal administration. The experiment is classed as in vivo. Here is the method: As Example 1, Wistar male rats (eight weeks age, Charles River Japan, Inc.) were naturalized with MF powdered food (Oriental Yeast, Co., Ltd.) for about one week. The hGPR8L(1-23) [human GPR8 ligand (1-23)] dissolved in saline at the concentration of 0.2 mg/ml and 2 mg/ml, or saline as a vehicle group was intraperistoneally administered at the ratio of 1 ml/kg just before dark period (between 19:45 and 20:00). This administration was carried out for three days (each n=10). At eight o'clock on the day after administration, food consumption and body weight were measured. All animals were bred for the light period of 12 hours, wherein the light period was set from 8:00 to 20:00, and the dark period was set from 20:00 to next 8:00.

The nature of experiment [2]: Glucose in blood, total cholesterol and triglyceride in rat, continuous administration under the skin. The experiment is classed as in vivo. The note with it: continuous s.c., eighth day. Here is the method:
(§1) Wistar male rats (eight weeks age, Charles River Japan, Inc.) were naturalized with MF powdered food (Oriental Yeast, Co., Ltd.) for about one week. An osmotic pump (alzet, MINI-OSMOTIC PUMP Model 2001, release rate: 24 μl/day), wherein 200 μl of hGPR8L(1-23) [human GPR8 ligand (1-23)] dissolved in saline at the concentration of 1 mM, or 200 μl of saline was filled, was loaded under the skin (at the center of back) of the above rats anesthetized by pentobarbital (each n=6). The next day on loading was set to zero. Under free feeding of MF powdered food, until the eighth day, food consumption and body weight were measured at 8:00 and 20:00. The light period was set from 8:00 to 20:00, and the dark period was set from 20:00 to next 8:00. After measurement at 8:00 on the eighth day, the rats were slaughtered by decapitation. The weight of liver, kidney, heart, spleen, testis, fat around kidney, fat around genitals and brown fat was measured. All animals were bred for the light period of 12 hours (the light period was set from 8:00 to 20:00).
Glucose in blood, total cholesterol and triglyceride on the eighth day after administration of hGPR8L(1-23) and vehicle described in (1) was measured using Fuji DRI CHEM.

A short description of experiment [3]: Food consumption, body weight gain and organ weight in rat, continuous administration under the skin. The experiment is classed as in vivo. Here is the method: as §1
The target in the next experiment is T1, GPR7 (Homo sapiens, UniProt P48145).
T1 sequence (P48145 1-328): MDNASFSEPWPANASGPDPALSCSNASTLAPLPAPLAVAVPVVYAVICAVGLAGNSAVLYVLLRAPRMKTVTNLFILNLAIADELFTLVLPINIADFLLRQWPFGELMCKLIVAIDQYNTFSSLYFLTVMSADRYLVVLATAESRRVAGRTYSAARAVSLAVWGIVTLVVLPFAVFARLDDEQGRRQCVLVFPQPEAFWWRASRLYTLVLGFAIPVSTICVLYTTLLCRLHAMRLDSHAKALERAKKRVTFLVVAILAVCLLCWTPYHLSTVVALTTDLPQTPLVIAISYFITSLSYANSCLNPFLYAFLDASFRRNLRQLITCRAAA
As to the kind of experiment: Promoting activity to GTPγS binding, membrane fraction of GPR7 expressing CHO cells. The experiment is classed as biochemical. Also noted: expressed in transfected cells; host or cells: CHO dhfr- cells, plasmid pAKKO-Human GPR7, clones 7, 8 and 14. The procedure: Promoting activity for [^35S]-guanosine 5′-(γ-thio) triphosphate (GTPγS) binding to the membrane fraction of GPR7 expressing CHO cells was assayed as follows.
The membrane fraction of the GPR7 expressing CHO cell, which was prepared by the method described in Reference Example 82, was diluted with a buffer for membrane dilution (50 mM Tris-hydrochloride buffer (pH 7.4), 5 mM MgCl2, 150 mM NaCl, 1 μM GDP) to make a cell membrane fraction solution for assay having a protein concentration of 30 mg/ml. […] After washing twice with 1.5 ml of a washing buffer (50 mM Tris-hydrochloride buffer (pH 7.4), 5 mM MgCl2, 1 mM EDTA, 0.1% BSA), radioactivity of the filter was measured using a liquid scintillation counter.
By administering hGPR8L(1-23) and hGPR8L(1-30) at various concentrations to the membrane fraction of GPR7 expressing CHO cells in accordance with the method described in I) above, a promoting activity to GTPγS binding was measured.
A promoting activity to GTPγS binding was measured by administering at various concentrations the human- and porcine-homologue derivatives of GPR8 ligand peptide obtained in Reference Example to the membrane fraction of GPR7 expressing CHO cells. […]
A general note: GTPγS is a poorly hydrolysed GTP analogue; its binding reports G protein activation.

Where [4] appears, read: continuous s.c. osmotic pump, 1 mM, 24 μl/day, vs vehicle group.
Setting [5] is: continuous s.c., eighth day, means ± standard error, n = 6.

For the compound `CSCC[C@H](NC(=O)[C@H](CC(C)C)NC(=O)[C@H](CC(C)C)NC(=O)CNC(=O)[C@H](C)NC(=O)[C@H](C)NC(=O)[C@H](CCCNC(=N)N)NC(=O)CNC(=O)[C@@H](NC(=O)[C@@H](NC(=O)[C@H](Cc1c[nH]cn1)NC(=O)[C@H](Cc1ccc(O)cc1)NC(=O)[C@H](CCCNC(=N)N)NC(=O)[C@@H]1CCCN1C(=O)[C@H](CO)NC(=O)[C@H](C)NC(=O)[C@@H](NC(=O)[C@H](Cc1c[nH]cn1)NC(=O)[C@H](CCCCN)NC(=O)[C@H](Cc1ccc(O)cc1)NC(=O)[C@@H](N)Cc1c[nH]c2ccccc12)C(C)C)[C@@H](C)O)C(C)C)C(=O)NCC(=O)N[C@@H](CC(C)C)C(=O)O` [hGPR8L(1-23)], the food consumption entry in experiment [1] (i.p. 2 mg/kg, all three days after administration, vs vehicle group (p<=0.05 or p<=0.01)) is given as “significant decrease”. In addition, the body weight gain entry in experiment [1] (i.p. 2 mg/kg, all three days, vs vehicle group) was “a tendency to decrease”. For the same compound, in experiment [1] (i.p. 2 mg/kg, the first day), the “body weight gain, difference among the means vs vehicle group” value is 1.2 g. In addition, in experiment [1] (i.p. 2 mg/kg, the second day), the “body weight gain, difference among the means vs vehicle group” value is 3.1 g. Moreover, the “body weight gain, difference among the means vs vehicle group” value in experiment [1] (i.p. 2 mg/kg, the third day) was determined as 2.3 g. In addition, the food consumption entry in experiment [1] (i.p. 0.2 and 2 mg/kg just before dark period, three days, vs vehicle group) is listed as “a tendency to decrease was demonstrated depending on dose”. In experiment [2], the glucose in blood stood at 155 ± 4.5 mg/dL; the “total cholesterol in blood” value was 69.1 ± 1.8 mg/dL; the triglyceride in blood was found to be 134 ± 28 mg/dL; the “triglyceride in blood, difference (lower) vs vehicle group” value was “at least 30 mg/dl”. For the same compound, the “suppression of body weight gain vs vehicle group” value in experiment [3] (continuous s.c. for one week) is listed as “about 10.7 g”. Besides, in experiment [3] (setting [4]), the “food consumption in the dark period” value was “a tendency to decrease”, the “food consumption in the light period” value is given as “no difference between both groups was observed” and the “total food consumption of a day” value was “a decrease was found”. In experiment [3] (continuous s.c., eighth day), the “decrease of fat around genitals vs vehicle group” value amounted to 0.7 g, the “decrease of fat around kidney (white fat tissue) vs vehicle group” value worked out at 1.2 g and the “decrease of liver weight vs vehicle group” value is recorded as 1.6 g. Further, in experiment [3] (setting [5]), the “weight of organs: Brown fat” value is reported as 0.45 ± 0.05 g, the “weight of organs: Fat around genitals” value was 5.5 ± 0.38 g, the “weight of organs: Fat around kidney” value worked out at 3.8 ± 0.53 g and the “weight of organs: Heart” value was 1.1 ± 0.04 g. Moreover, in experiment [3] (setting [5]), the “weight of organs: Kidney” value came out at 2.6 ± 0.09 g, the “weight of organs: Liver” value is given as 14.2 ± 0.7 g, the “weight of organs: Spleen” value worked out at 1.0 ± 0.06 g and the “weight of organs: Testis” value was found to be 3.4 ± 0.12 g. The compound also came in with a body weight gain in experiment [3] (continuous s.c., from zero day to the seventh day) of 28.9 ± 3.2 g. In experiment [3] (continuous s.c., seventh day), the “body weight (means±standard error)” value came to 364.6 ± 6.0 g. Besides, the “promoting activity to GTPγS binding (in words)” value at GPR7 was “apparently promote GTPγS binding”.

For `CSCC[C@H](NC(=O)[C@H](CC(C)C)NC(=O)[C@H](CC(C)C)NC(=O)CNC(=O)[C@H](C)NC(=O)[C@H](C)NC(=O)[C@H](CCCNC(=N)N)NC(=O)CNC(=O)[C@@H](NC(=O)[C@@H](NC(=O)[C@H](Cc1c[nH]cn1)NC(=O)[C@H](Cc1ccc(O)cc1)NC(=O)[C@H](CCCNC(=N)N)NC(=O)[C@@H]1CCCN1C(=O)[C@H](CO)NC(=O)[C@H](C)NC(=O)[C@@H](NC(=O)[C@H](Cc1c[nH]cn1)NC(=O)[C@H](CCCCN)NC(=O)[C@H](Cc1ccc(O)cc1)NC(=O)[C@@H](N)Cc1c[nH]c2ccccc12)C(C)C)[C@@H](C)O)C(C)C)C(=O)NCC(=O)N[C@@H](CC(C)C)C(=O)N[C@@H](CCCNC(=N)N)C(=O)N[C@@H](CCCNC(=N)N)C(=O)N[C@@H](CO)C(=O)N1CCC[C@H]1C(=O)N[C@@H](Cc1ccc(O)cc1)C(=O)N[C@@H](CC(C)C)C(=O)N[C@@H](Cc1c[nH]c2ccccc12)C(=O)O` [hGPR8L(1-30)], the “promoting activity to GTPγS binding (in words)” value at GPR7 was “apparently promote GTPγS binding”.
